## Ab-14 heavy chain CDR variants: yeast mating affinities

Antigen: PDVDLGDISGINAS, a 14-residue peptide of the SARS-CoV-2 spike HR2 region.

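The parent was found by panning a naive human phage display library on the peptide. Library AAYL49 holds single substitutions and randomly drawn double and triple substitutions in the CDRs. AlphaSeq pools MATa yeast showing the antibodies with MATalpha yeast showing the peptide. The frequency of each diploid, read from paired DNA barcodes, reflects how well the two displayed proteins bind. The ratio of observed to expected reads was calibrated, replicate by replicate, on BCL2-family standards whose Kd was known from biolayer interferometry. The assay was run in three technical replicates.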

Parent scFv Ab-14: VH joined to VL by a (GGGGS)3 linker. Changes lie in the heavy chain CDRs alone.
VH: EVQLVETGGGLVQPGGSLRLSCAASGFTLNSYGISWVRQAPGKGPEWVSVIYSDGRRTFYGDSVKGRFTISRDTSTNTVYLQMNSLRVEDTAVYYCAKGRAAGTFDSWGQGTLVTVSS
VL: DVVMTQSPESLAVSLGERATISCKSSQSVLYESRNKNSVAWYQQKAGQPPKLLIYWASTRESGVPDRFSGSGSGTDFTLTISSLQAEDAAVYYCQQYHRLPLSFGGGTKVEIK

The parent's heavy chain CDRs are GFTLNSYGIS, VIYSDGRRTFYGDSVK, GRAAGTFDS; each variant's own CDRs replace them letter for letter.
All variants listed here change F105 of the VH, counted from its first residue.
Kd is apparent (estimated from mating counts) and averaged on the log scale over replicates with a signal. Smaller is tighter.
"no signal" marks a missing value. The strain was present, yet no cells mated with the target were sequenced in any replicate, which points to weak or no binding.
Empty control strains, which show no peptide, gave a signal in 15% of pairings with library AAYL49; the median was 11 µM and 95% of these signals were weaker than 680 nM. No background was subtracted. For each scFv, signals with the empty controls are counted beside the result.
For reference, the parent read 4.4 nM as the reference entry and 13 µM (one replicate of three) as a member of this library.

Variant NFTLNSYGIS | VIYSDGRRTFYGDSVK | GRAAGGMDS showed 3.0 µM (1 of 3 replicates; controls 2 of 9). Variant GFTLNSYGKS | VIYSDGRRTFAGDSVK | GRAAGTMDS gave no signal (0 of 3 replicates; controls 0 of 9). Variant GFTLNSYGIS | VIYSDGRRTDYGDCVK | GRAAGTSDS showed no signal (0 of 3 replicates; controls 0 of 9). For GFTLNSYGIS | VIYSDGRNTFYGDSVK | GRAAGTHDS, the assay gave no signal (0 of 3 replicates; controls 0 of 9). Variant GFTLNSYGIS | VIYSDGRRTFYGISVK | GRAAGTLDS gave 4.3 µM (3 of 3 replicates; controls 3 of 9). With GFERNSYGIS | VIYSDGRRTFYGDSVK | GRAAGTEDS the result was no signal (0 of 3 replicates; controls 0 of 9). Variant GFTLNSYGIS | VIYIDGRRTFYDDSVK | GRAAGTGDS gave 9.4 µM (1 of 3 replicates; controls 0 of 9). With GFTLNSYGIS | VIYSDGRRTFYGESVK | GRAAFTGDS the result was 2.1 µM (2 of 3 replicates; controls 1 of 9). Variant GFTLESYGIS | VIYSDGRRYFYGDSVK | GRAAGTCDS gave 180 µM (1 of 3 replicates; controls 0 of 9).

Variant GFTLNSYGIS | VIYSDNRRTFYGDSVK | GRRAGTVDS gave no signal (0 of 3 replicates; controls 0 of 9). Variant GFTLNSYGVS | VIYSDGRRTFYGDSVK | GDAAGTLDS gave no signal (0 of 3 replicates; controls 1 of 9). Variant GFTLNSYGIS | VIYSDGRRTFYGDSVK | GKAAGTADS gave 4.2 µM (1 of 3 replicates; controls 3 of 9). Variant GFTLNSYGHS | VIYSDQRRTFYGDSVK | GRAAGTYDS gave no signal (0 of 3 replicates; controls 1 of 9). For GFTLNSYGIS | VIYSDGRRTFYGDSVK | WRAMGTCDS, the assay gave no signal (0 of 3 replicates; controls 1 of 9). For GFTLNSYGIS | VIYSDGRRTFYGDSVK | GRIAGTCDS, the assay gave no signal (0 of 3 replicates; controls 0 of 9). Variant GFTLNQYGIS | VIYSDGRRTIYGDSVK | GRAAGTTDS gave 16 nM (3 of 3 replicates; controls 1 of 9). Variant GWTLNSYGIS | VIYMDGRRTFYGDSVK | GRAAGTGDS gave no signal (0 of 3 replicates; controls 0 of 9). Variant GFTLNSYGIS | VIYSDGRRTFYGDSVK | GRAAGTDDS gave no signal (0 of 3 replicates; controls 1 of 9).

For GFTLNSYGIS | VICSDIRRTFYGDSVK | GRAAGTYDS, the assay gave 9.8 µM (1 of 3 replicates; controls 4 of 9). With GFTLNSYGIS | AIYSDGRRTFYGDSVK | GRAAGFQDS the result was no signal (0 of 3 replicates; controls 6 of 9). Variant GFTLNSYGIS | VIYSDGRRTFYGDSQK | GRAYGTKDS showed 66 µM (2 of 3 replicates; controls 2 of 9). Variant GFTLNSYEIS | VIYSDGLRTFYGDSVK | GRAAGTRDS gave 16 µM (1 of 3 replicates; controls 0 of 9). Variant GFTLNSYGIS | VIYFDGRRTFYGCSVK | GRAAGTLDS gave no signal (0 of 3 replicates; controls 1 of 9). Variant GFTLNSYGIS | VIYSDGDRTFYGDSVK | GRAAGTNDS showed 15 nM (3 of 3 replicates; controls 0 of 9). For GFTPNSYGIS | VIYSCGRRTFYGDSVK | GRAAGTMDS, the assay gave no signal (0 of 3 replicates; controls 0 of 9). Variant GFTLNSYGIS | VIYSDGRTTFYGDSVT | GRAAGTHDS showed 8.9 µM (1 of 3 replicates; controls 1 of 9). Variant GFTLNSYGIS | VRYSRGRRTFYGDSVK | GRAAGTNDS gave no signal (0 of 3 replicates; controls 1 of 9).

For GFTLNSYGIS | VIYSDGRRNFYGDSVK | GLAAGTQDS, the assay gave 49 nM (2 of 3 replicates; controls 0 of 9). For GFTLNSYGIS | VIYSDGRRNFYGDSVK | GRAAGVGDS, the assay gave no signal (0 of 3 replicates; controls 0 of 9). Variant GFTLNSYGIS | VIYSDGRRTFYGDSVK | GRAAGTTDS gave 620 nM (3 of 3 replicates; controls 5 of 9). Variant GFTLNSYGIS | VIYSDGRRTFYGASVK | GRAAGTGDS showed no signal (0 of 3 replicates; controls 0 of 9). With GFTLNSYGIS | VIYSDGRRTFYGDSVK | GRAAGTVDS the result was 77 nM (3 of 3 replicates; controls 0 of 9). Variant GFTLISYGIS | VIYSHGRRTFYGDSVK | GRAAGTSDS showed 10 µM (1 of 3 replicates; controls 3 of 9). Variant GFTLNSVGIS | VIYSDGRRTFYGRSVK | GRAAGTEDS showed no signal (0 of 3 replicates; controls 2 of 9). For RFTLNSYGIS | SIYSDGRRTFYGDSVK | GRAAGTIDS, the assay gave 2.6 µM (1 of 3 replicates; controls 1 of 9). Variant GFTLNSYGIS | VIYSDGRRTFYGDHVK | GRAAGTVDR showed 550 nM (3 of 3 replicates; controls 0 of 9).

Variant GFTLNSYWES | VIYSDGRRTFYGDSVK | GRAAGTSDS gave 45 µM (3 of 3 replicates; controls 2 of 9). Variant IFTLNSYGIS | VIYSDGRRTFYGDSVK | GIAAGTADS showed no signal (0 of 3 replicates; controls 1 of 9). With GFTLNSYGIS | VTYSDGRRWFYGDSVK | GRAAGTYDS the result was no signal (0 of 3 replicates; controls 2 of 9). Variant GFILNSYGIS | VIYSDGRRTFYGDSVS | GRAAGTRDS showed 59 nM (3 of 3 replicates; controls 1 of 9). For GFTLWSYGRS | VIYSDGRRTFYGDSVK | GRAAGTADS, the assay gave 360 µM (1 of 3 replicates; controls 6 of 9). Variant GFTLASYGIS | WIYSDGRRTFYGDSVK | GRAAGTEDS showed 23 µM (3 of 3 replicates; controls 5 of 9). Variant GNTLNSYGIS | VIYSDGRRTFYGDSVK | ERAAGTNDS showed 3.7 µM (3 of 3 replicates; controls 2 of 9). For GFTKNSAGIS | VIYSDGRRTFYGDSVK | GRAAGTADS, the assay gave no signal (0 of 3 replicates; controls 1 of 9). With GFTLNSYGIS | VIYSDGRRTFYGDAPK | GRAAGTLDS the result was 26 µM (1 of 3 replicates; controls 2 of 9).

For GWTWNSYGIS | VIYSDGRRTFYGDSVK | GRAAGTMDS, the assay gave no signal (0 of 3 replicates; controls 1 of 9). Variant GFTLNSYGIS | VIYSDGRRTFYGCSVK | WRAAGTDDS showed no signal (0 of 3 replicates; controls 0 of 9). For GKTLNSYGIS | VIYSDGRRKFYGDSVK | GRAAGTCDS, the assay gave no signal (0 of 3 replicates; controls 1 of 9). For GFTLCSYGIS | VIYSDGRRTFYGDSVK | GRAMGTQDS, the assay gave 3.0 µM (1 of 3 replicates; controls 1 of 9). For GFTLNSYGIS | VIYSDGRRTFYIDSVK | GRAAGTCDT, the assay gave no signal (0 of 3 replicates; controls 2 of 9). Variant GGTLNSYGIS | VIYSDERRTFYGDSVK | GRAAGTNDS gave no signal (0 of 3 replicates; controls 1 of 9). Variant GFTLNSYGIS | VIYSDGPRTFYGDSVK | GRAAGTRPS showed no signal (0 of 3 replicates; controls 0 of 9).

Picked from the list: the 3 lowest averages where every replicate gave a value.

The variant GFTLNSYGIS | VIYSDGDRTFYGDSVK | GRAAGTNDS showed 15 nM (3 of 3 replicates; controls 0 of 9).
The variant GFTLNQYGIS | VIYSDGRRTIYGDSVK | GRAAGTTDS showed 16 nM (3 of 3 replicates; controls 1 of 9).
The variant GFILNSYGIS | VIYSDGRRTFYGDSVS | GRAAGTRDS showed 59 nM (3 of 3 replicates; controls 1 of 9).

Source: Engelhart et al. 2022 (doi:10.1038/s41597-022-01779-4), MIT Lincoln Laboratory and A-Alpha Bio; data file from the FLAb repository.